Data: ChEMBL document CHEMBL1159064 (J Med Chem, 2010)
pKi: −log10 of the molar value.

Sequences of proteins named here, by UniProt entry; tags and fusion partners are left off.
UniProt P14416, whole entry: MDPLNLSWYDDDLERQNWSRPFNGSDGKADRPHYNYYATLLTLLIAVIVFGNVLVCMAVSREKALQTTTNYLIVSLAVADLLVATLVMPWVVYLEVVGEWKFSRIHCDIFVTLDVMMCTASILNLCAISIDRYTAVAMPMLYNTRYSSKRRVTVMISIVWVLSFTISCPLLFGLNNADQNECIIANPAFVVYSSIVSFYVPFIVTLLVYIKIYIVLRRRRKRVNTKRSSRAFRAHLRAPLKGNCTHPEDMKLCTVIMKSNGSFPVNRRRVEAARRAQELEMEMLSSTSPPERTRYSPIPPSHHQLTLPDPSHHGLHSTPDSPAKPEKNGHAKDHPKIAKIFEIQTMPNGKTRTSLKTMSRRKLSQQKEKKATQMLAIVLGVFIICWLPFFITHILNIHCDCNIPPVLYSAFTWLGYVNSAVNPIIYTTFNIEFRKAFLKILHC

Target: D(2) dopamine receptor (Homo sapiens, UniProt P14416)
Assay: Displacement of [3H]spiperone from dopamine D2 receptor expressed in HEK293 cells by liquid scintillation counting
Type: cell-based

Work on `CCCN1CCc2cccc3c2[C@H]1Cc1cccc(O)c1-3` yielded a pKi of 6.94.
